Ab-14 heavy chain CDR variants: yeast mating affinities

All variants were tested on one target, the spike HR2 peptide PDVDLGDISGINAS (SARS-CoV-2).

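The starting antibody came from a phage panning campaign against this peptide. This is the validation round: designs drawn from the data on random variants, tested in the same kind of assay. Several design methods are mixed in this list. In AlphaSeq, yeast of one mating type display the scFv and yeast of the other type display the target. After mating in shaken culture at 30 °C for 16 h, diploids were selected and their barcode pairs sequenced. Read counts were normalised to the haploid input and turned into Kd by a linear fit to BCL2-family pairs of known affinity, for each replicate. The assay was run in six technical replicates.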

Ab-14 is the parent antibody, in scFv form: VH, then the linker GGGGSGGGGSGGGGS, then VL. The light chain is unchanged in all variants.
VH: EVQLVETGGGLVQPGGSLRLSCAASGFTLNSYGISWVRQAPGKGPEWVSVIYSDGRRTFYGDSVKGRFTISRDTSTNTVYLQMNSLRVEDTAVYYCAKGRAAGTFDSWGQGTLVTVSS
VL: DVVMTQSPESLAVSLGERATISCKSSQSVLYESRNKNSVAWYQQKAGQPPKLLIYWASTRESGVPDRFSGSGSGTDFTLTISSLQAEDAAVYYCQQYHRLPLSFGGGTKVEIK

Sequences are complete VH domains. Values are log10 of the apparent Kd in nM; lower means stronger binding. Replicates are averaged; those with no signal do not enter the mean. "no signal" means that the variant was in the library but no mating with the target was seen in any replicate; the authors take this as a sign of poor binding, and no number exists. Empty control strains, which show no peptide, gave a signal in 1% of pairings with all heavy chain designs; the median was 2.08 and 95% of these signals were weaker than 0.84. No background was subtracted. The range of this assay differs from that of the first round, and the authors advise against merging the two. The authors' rule: three or more of the six replicates give a measured affinity, fewer mean a poor binder.

mean, log10 nM	detected	VH
no signal	0/6	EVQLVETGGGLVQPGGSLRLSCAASGFTLNSYGISWVRQAPGKGPEWVSVIYSDGRDTFYGDSVKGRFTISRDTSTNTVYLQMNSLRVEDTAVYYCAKGRAAGTFDSWGQGTLVTVSS
0.70	2/6	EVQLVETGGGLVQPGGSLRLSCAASQFTLNEYGISWVRQAPGKGPEWVSVIYSDGRRTFYSDSVKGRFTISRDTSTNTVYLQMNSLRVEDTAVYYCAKGRAAGTFDSWGQGTLVTVSS
no signal	0/6	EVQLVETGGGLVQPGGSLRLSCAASGFHLNSYGISWVRQAPGKGPEWVSVIYSDGRRTFYIDSVKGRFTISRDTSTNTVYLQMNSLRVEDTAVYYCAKGRQAGTFDSWGQGTLVTVSS
-0.49	6/6	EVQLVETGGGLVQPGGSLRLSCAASGFDLDEYGISWVRQAPGKGPEWVSVIYADGRRTAYADNVKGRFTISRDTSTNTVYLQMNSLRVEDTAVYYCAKGEVAGTFDIWGQGTLVTVSS
1.43	6/6	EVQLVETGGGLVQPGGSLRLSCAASGFELNMYGISWVRQAPGKGPEWVSVIYSDGRRTFYGDSVKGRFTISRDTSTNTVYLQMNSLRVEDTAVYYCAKGEAAGTFDKWGQGTLVTVSS
-0.42	6/6	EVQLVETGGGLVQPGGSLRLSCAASGFDLSEYGISWVRQAPGKGPEWVSVIYADGMRTAYADSVKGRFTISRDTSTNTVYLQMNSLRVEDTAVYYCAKGENAGTFDVWGQGTLVTVSS
0.73	6/6	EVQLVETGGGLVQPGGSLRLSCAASGFDLEDYGISWVRQAPGKGPEWVSVIYADGQRTAYADSVKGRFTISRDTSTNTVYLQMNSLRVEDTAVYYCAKGEAAGTFDLWGQGTLVTVSS
0.14	6/6	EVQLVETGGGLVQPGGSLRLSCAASGFDLNEYGISWVRQAPGKGPEWVSVIYADGRRTAYLDSVKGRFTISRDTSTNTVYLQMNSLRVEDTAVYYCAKGELAGTFDTWGQGTLVTVSS
no signal	0/6	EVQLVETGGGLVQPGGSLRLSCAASGFTINSYGISWVRQAPGKGPEWVSVIYSDGRRTFYGDSVKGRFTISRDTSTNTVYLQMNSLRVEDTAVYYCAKLRTAGRFDSWGQGTLVTVSS
0.13	6/6	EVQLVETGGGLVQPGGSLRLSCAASGFDLNEYGISWVRQAPGKGPEWVSVIYADGMRTFYTDSVKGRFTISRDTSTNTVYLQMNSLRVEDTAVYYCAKGNAAGTFLVWGQGTLVTVSS
0.16	6/6	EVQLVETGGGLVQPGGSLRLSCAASGFDLNEYGISWVRQAPGKGPEWVSVIYADGMRTAYSDDVKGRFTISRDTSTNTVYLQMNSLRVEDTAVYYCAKGETAGTFDLWGQGTLVTVSS
no signal	0/6	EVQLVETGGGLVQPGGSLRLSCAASGFTLNSYGISWVRQAPGKGPEWVSVIYRDGRRTFYIDSVKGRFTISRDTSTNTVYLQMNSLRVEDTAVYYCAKGDAAGTSDSWGQGTLVTVSS
no signal	0/6	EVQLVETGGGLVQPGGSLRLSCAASGFELNAYGISWVRQAPGKGPEWVSVIYSDGRRTFYGDSVKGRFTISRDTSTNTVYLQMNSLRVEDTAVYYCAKGRTAGTFDSWGQGTLVTVSS
-0.48	6/6	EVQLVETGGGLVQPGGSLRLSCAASGFDLNEYGISWVRQAPGKGPEWVSVIYADGRRTAYIDSVKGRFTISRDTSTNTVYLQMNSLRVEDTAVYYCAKGEAAGTFDAWGQGTLVTVSS
0.06	5/6	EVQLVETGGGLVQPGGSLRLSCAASGFELNSYGISWVRQAPGKGPEWVSVIYSDGRRTFYVDSVKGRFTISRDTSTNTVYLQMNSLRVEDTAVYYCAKGNAAGTFDSWGQGTLVTVSS
-0.09	6/6	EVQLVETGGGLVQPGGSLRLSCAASGFDLNTYGISWVRQAPGKGPEWVSVIYSDGRRTFYADSVKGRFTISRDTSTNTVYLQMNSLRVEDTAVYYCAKGRAAGTFDSWGQGTLVTVSS
-0.37	6/6	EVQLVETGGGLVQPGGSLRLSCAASGFDLDEYGISWVRQAPGKGPEWVSVIYADGKRTAYANSVKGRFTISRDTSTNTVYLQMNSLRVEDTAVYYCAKGNVAGTFDVWGQGTLVTVSS
no signal	0/6	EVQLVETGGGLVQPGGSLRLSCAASGFDLNSYGISWVRQAPGKGPEWVSVIYSDGRRTFYGDSVKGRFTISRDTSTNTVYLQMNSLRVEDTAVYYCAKGRAAGNFIQWGQGTLVTVSS
2.06	2/6	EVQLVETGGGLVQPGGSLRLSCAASGFTLNDYGISWVRQAPGKGPEWVSVIYSDGRRTQYSDSVKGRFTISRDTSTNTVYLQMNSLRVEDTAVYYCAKGRCAGTFDSWGQGTLVTVSS
1.06	6/6	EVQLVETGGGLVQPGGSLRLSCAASKFDLNSYGISWVRQAPGKGPEWVSVIYSDGRRTFYGDSVKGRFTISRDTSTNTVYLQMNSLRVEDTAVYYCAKGSTAGTFDSWGQGTLVTVSS
0.49	6/6	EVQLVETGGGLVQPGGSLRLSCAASGFTLNSYGISWVRQAPGKGPEWVSVIYSDGKRTFYADSVKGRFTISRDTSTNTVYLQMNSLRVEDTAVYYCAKGRQAGTFDSWGQGTLVTVSS
no signal	0/6	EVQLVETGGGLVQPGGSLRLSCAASGEDLQEYGISWVRQAPGKGPEWVSVIYADGFRQSYSEKVKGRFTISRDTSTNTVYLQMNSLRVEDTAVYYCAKGQHGGYLVKWGQGTLVTVSS

The first 2 entries again:

VH	mean, log10 nM	detected
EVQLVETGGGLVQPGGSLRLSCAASGFTLNSYGISWVRQAPGKGPEWVSVIYSDGRDTFYGDSVKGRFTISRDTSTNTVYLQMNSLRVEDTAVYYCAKGRAAGTFDSWGQGTLVTVSS	no signal	0/6
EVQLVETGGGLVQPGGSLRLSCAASQFTLNEYGISWVRQAPGKGPEWVSVIYSDGRRTFYSDSVKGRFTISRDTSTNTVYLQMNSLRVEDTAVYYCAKGRAAGTFDSWGQGTLVTVSS	0.70	2/6

Reference: Li et al. 2023, doi:10.1038/s41467-023-39022-2. File: FLAb, binding data.